In BindingDB's records for patent US10981904 (Cancer Research Technology, 2021):

Target: T1, Glutaminase kidney isoform, mitochondrial [63-669] (Homo sapiens, UniProt O94925)
T1 sequence (O94925 whole entry): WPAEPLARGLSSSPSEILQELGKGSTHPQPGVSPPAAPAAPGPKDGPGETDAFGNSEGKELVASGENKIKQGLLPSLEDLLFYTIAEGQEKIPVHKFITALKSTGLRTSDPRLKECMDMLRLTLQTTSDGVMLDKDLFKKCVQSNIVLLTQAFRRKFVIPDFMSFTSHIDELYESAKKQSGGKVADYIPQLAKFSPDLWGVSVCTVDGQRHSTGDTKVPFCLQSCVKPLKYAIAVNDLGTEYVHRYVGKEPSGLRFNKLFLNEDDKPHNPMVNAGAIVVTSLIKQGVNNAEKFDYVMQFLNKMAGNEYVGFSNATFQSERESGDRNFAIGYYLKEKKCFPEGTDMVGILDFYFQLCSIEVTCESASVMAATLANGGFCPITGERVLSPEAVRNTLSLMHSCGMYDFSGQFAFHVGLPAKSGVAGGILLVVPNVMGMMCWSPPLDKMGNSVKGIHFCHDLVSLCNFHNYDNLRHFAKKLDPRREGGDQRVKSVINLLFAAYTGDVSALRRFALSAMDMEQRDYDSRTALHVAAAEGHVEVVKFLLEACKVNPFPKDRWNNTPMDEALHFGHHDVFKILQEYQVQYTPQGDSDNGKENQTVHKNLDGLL
Assay: GLS Enzyme Potency Assay
Description: A Glutamate Oxidase/AmplexRed coupled assay was used to measure the ability of compounds to bind to and inhibit the activity of GLS1 in vitro. […] GLS1 was diluted to 2× working concentration and incubated at room temperature to allow the tetrameric/dimeric forms to reach steady state. Assay measurements were performed in buffer comprising 50 mM TRIS pH 7.8, 100 mM NaPO4, pH 7.8, 0.001% v/v Tween20. […] DMSO concentration was maintained at 2% by back filling with DMSO solution. […] 3 μL of 100 mM glutamine diluted in assay buffer was then added and the reaction incubated at room temperature for 60 minutes. […] An artefact version of the assay where the 6His tagged GLS protein and glutamine were replaced with assay buffer was also used to rule out non specific effects on the assay components.

IC50 | Compound
64.1 nM | CO[C@H](C(=O)Nc1nnc(N[C@@H]2CCN(c3cccnn3)C2)s1)c1ccc(F)c(OC(F)(F)F)c1 [US10981904, Example 20(b)]
96.1 nM | CCO[C@H](C(=O)Nc1nnc(N[C@@H]2CCN(c3cccnn3)C2)s1)c1cccc(OC(F)(F)F)c1 [US10981904, Example 19(b)]
